Test results reported in ChEMBL document CHEMBL3886284, “Chemical compounds” (2015).

Amino acid sequences for entries named in this document (tags omitted).
UniProt P42337, whole entry: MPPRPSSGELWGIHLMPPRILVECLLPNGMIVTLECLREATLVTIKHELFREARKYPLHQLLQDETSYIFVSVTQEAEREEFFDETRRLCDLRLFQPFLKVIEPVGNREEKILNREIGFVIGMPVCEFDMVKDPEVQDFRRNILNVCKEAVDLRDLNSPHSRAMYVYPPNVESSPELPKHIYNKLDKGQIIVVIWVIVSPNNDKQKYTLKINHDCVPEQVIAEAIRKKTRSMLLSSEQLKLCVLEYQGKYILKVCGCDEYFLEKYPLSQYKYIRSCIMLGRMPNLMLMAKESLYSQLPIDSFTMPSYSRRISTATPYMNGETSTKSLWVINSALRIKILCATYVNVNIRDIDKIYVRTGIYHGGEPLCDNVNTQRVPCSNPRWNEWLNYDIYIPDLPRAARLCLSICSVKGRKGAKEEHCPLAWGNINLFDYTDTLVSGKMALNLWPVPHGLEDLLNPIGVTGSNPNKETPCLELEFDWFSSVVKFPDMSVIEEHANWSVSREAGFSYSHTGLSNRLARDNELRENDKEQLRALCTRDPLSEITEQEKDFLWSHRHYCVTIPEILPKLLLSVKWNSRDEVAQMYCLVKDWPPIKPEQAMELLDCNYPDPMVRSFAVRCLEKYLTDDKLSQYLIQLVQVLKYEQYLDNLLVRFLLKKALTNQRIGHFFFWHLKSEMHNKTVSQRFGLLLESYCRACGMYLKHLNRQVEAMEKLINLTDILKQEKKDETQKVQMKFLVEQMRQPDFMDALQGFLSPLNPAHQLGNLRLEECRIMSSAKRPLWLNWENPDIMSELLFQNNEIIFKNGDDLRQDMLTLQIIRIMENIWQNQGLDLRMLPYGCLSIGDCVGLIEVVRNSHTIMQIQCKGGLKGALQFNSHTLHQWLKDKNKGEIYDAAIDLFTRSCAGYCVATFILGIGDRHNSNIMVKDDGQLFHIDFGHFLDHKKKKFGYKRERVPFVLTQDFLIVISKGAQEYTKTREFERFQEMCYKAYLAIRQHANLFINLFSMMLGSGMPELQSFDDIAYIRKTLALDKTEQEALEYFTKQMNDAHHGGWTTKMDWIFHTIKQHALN

Biological target: Phosphatidylinositol 4,5-bisphosphate 3-kinase catalytic subunit alpha isoform (Mus musculus, UniProt P42337)
Experiment: Cell Based Assay: This assay was used to measure PI3K-alpha inhibition in cells. BT474 cells (human breast ductal carcinoma, ATCC HTB-20) were seeded into black 384 well plates (Costar, #3712) at a density of 5600 cells/well in DMEM containing 10% FBS and 1% glutamine and allowed to adhere overnight.The following morning compounds in 100% DMSO were added to assay plates by acoustic dispensing. After a 2 hour incubation at 37 C. and 5% CO2, the medium was aspirated and the cells were lysed with a buffer containing 25 mM Tris, 3 mM EDTA, 3 mM EGTA, 50 mM sodium fluoride, 2 mM Sodium orthovanadate, 0.27M sucrose, 10 mM beta-glycerophosphate, 5 mM sodium pyrophosphate, 0.5% Triton X-100 and complete protease inhibitor cocktail tablets (Roche #04 693 116 001, used 1 tab per 50 ml lysis buffer).After 20 minutes, the cell lysates were transferred into ELISA plates (Greiner #781077) which had been pre-coated with an anti total-AKT antibody in PBS buffer.
Parameters: species or system BT-474

C[C@@H](O)CC(=O)N1CCC(c2nc(-c3cnc(N)c(-c4nnc(C(C)(C)C)o4)n3)n(C)n2)CC1 (stereo in doubt)
IC50: 0.31 µM
